# Patent US20070053934A1, “Polyvalent multimeric composition containing active polypeptides, pharmaceutical compositions and methods of using the same” (priority 2005, published 2007)
# Key:
# B. subtilis [1] = details: 18 h
# B. subtilis [2] = details: 6 h
# E. coli = details: 18 h
# fresh sheep erythrocytes = test: Hemolysis assay HD50 (Examples 1B and 2); format: cell-based
# Procedure: Stock solutions of samples were prepared by the same procedure as in antibacterial assays. Hemolytic activity of monomeric peptides and multivalent ones were assessed on fresh sheep erythrocytes (Fitzgerald, Inc., MA) in 35 mM PBS buffer, 150 mM NaCl, pH 7.0. Peptide concentrations corresponding to 50% hemolysis were used as hemolytic dose (HD50) determined from dose-response curve (National Committee for Clinical Laboratory Standards. 2004, Methods for dilution antimicrobial susceptibility tests for bacteria that grow aerobically; sixth edition, approved standard M100-S14. National Committee for Clinical Laboratory Standards. Wayne, Pa.). Aliquots of cell suspension were mixed in eppendorf tubes with varying volumes of stocks and buffer for a total volume of 1 mL. Solutions containing same volume of DMSO without samples were used as control. These tubes were incubated at 37° C. for 1 hr, and then spun down at 3,000 rpm for 5 mins. The resulting supernatant was diluted by a factor of 40 in distilled water. The absorbances of the dilutions at 540 nm were measured in the Genesys 5 Spectrophotometer (Thermo Spectronic, Inc., NY). Zero hemolysis and 100% hemolysis controls were obtained by incubating the cells with buffer and 20% Tween, respectively. Hemolytic index (HI) was defined as HI=HD50/IC50. […]
# sheep red blood cells = test: Hemolysis assay (Example 1A); format: cell-based; details: 10% suspension of sheep red blood cells, 37° C., 1 hr
# Procedure: Hemolytic activity of the peptides was determined on a 10% suspension of sheep red blood cells in 10 mM Tris-HCl buffer, 150 mM NaCl, pH 7.0. 800 μL of this suspension were mixed in 1.5 mL Eppendorf tubes with varying volumes of peptide stock and buffers for a total volume of 1 mL. […] After the hour, the tubes were spun down at 3,000 rpm on a table top centrifuge for 5 mins, and the resulting supernatant was diluted by a factor of 40 in distilled water. The absorbance of the dilutions at 540 nm was measured in the Genesys 5 Spectrophotometer (Thermo Spectronic). Zero hemolysis and 100% hemolysis controls were determined by incubating the cells with buffer and 20% Tween, respectively. The final concentrations of peptides were designed to approximate 0.1×, 1×, 2×, 5×, and 10× of the MIC value for growth inhibition, to evaluate the potential therapeutic ratio.
SMILES,IC50 B. subtilis (B. subtilis [1]) [µg/mL],MIC B. subtilis (B. subtilis [2]) [µg/mL],IC50 E. coli (E. coli) [µg/mL],HD50 red blood cell (fresh sheep erythrocytes) [µg/mL],Hemolytic Activity (10%) (sheep red blood cells) [µg/mL]
"CC(=O)N[C@@H](CCCNC(=N)N)C(=O)N[C@@H](CCCNC(=N)N)C(=O)N[C@@H](Cc1c[nH]c2ccccc12)C(=O)N[C@@H](Cc1c[nH]c2ccccc12)C(N)=O [Monomeric RRWW—NH2, Ac—RRWW—NH2]",131,100,586,2280,1250
"CC(=O)N[C@@H](CCCNC(=N)N)C(=O)N[C@@H](Cc1c[nH]c2ccccc12)C(=O)N[C@@H](CCCNC(=N)N)C(=O)N[C@@H](Cc1c[nH]c2ccccc12)C(N)=O [Monomeric RWRW—NH2, Ac—RWRW—NH2]",142,90,510,1850,2250
